The IC50 is the concentration that inhibits the measured activity by half.

Amino acid sequences for entries named in this document (tags omitted). A change or cut given only in a name is not applied to a line headed by its entry.
UniProt Q8MJ88: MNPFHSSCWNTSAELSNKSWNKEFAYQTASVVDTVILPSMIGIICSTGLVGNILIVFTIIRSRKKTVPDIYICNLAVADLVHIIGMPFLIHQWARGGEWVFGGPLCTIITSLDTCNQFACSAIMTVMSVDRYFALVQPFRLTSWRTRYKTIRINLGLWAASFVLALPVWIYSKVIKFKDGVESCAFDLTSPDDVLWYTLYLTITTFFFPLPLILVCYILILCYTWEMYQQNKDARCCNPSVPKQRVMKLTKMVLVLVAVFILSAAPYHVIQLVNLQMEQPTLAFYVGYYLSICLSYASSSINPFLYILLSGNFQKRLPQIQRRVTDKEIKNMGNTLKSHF
UniProt P20382: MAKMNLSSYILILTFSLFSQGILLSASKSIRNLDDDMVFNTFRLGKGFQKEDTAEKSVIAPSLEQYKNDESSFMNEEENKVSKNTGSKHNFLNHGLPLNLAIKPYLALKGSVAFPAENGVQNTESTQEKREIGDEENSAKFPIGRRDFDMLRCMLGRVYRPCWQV

These results are taken from patent publication US20040132045A1 (MERCK, published 2004).

In the test the target is T1, rhesus monkey MCH-2R (melanin-concentrating hormone type 2 receptor) (rhesus monkey, UniProt Q8MJ88 1-340).
T1 construct: also called rhesus MCH-2R
The test can be described thus: displacement of 100 pM [125I]-[Phe13, Tyr19]-MCH from HEK293T cells expressing rhesus MCH-2R, filtration. As for the experimental part: HEK293T cells transfected with pEF1/V5-H is C/MCH-2R plasmid were harvested by phosphate-buffered saline containing 2 mM EDTA 48 hours after transfection, and washed once with the assay buffer (Hanks' balanced salt solution containing 20 mM HEPES, 0.2% BSA and 100 μg/ml bacitracin, pH 7.4). The cells (4×10⁵ cells/tube) were then incubated in 250 μl/tube of the same buffer with 100 pM [¹²⁵I]-[Phe¹³, Tyr¹⁹]-MCH for 30 minutes at 37° C. After the incubation, bound and free [¹²⁵I]-[Phe¹³, Tyr¹⁹]-MCH were separated by filtration using a Unifilter GF/B glass filter (Packard Instrument) presoaked with 0.3% polyethylenimine. The remaining radio activity on the filter was quantitated using a TopCount HTS (Packard instrument) with a Microscint 0 scintillation cocktail (Packard instrument). Specific binding was defined as the difference between total binding and nonspecific binding in the presence of 1 μM cold [Phe¹³, Tyr¹⁹]-MCH. Data were analyzed using GraphPad Prism Version 3.0.
IC₅₀ values of MCH and [Phe¹³, Tyr¹⁹]-MCH in this experiment were calculated as 9.9 and 3.8 nM, respectively.

B1: Melanin-concentrating hormone (MCH) (peptide, UniProt P20382 147-165, looked up)
peptide: DFDMLRCMLGRVYRPCWQV
modifications: cyclic (as printed: 'cyclic 19-amino acid neuropeptide')
notes: mature; also called cold MCH; MCH unlabeled peptide
B1 showed an IC50 of 9.9 nM.
